Assay results as given in patent publication US11717499B2 (priority 2011, dated 2023).
Entries after “also recorded” stand apart in the source; their conditions may differ.

Tested on: IL-10
Test: Immunoblot of IL-10 expression in placental tissue
Format: in vivo
Conditions: DMA rescued mice vs LPS alone, p<0.001
Description: Frozen placentas and uteri from each group were allowed to thaw on ice. Each tissue was then transferred to a Kontes glass homogenizer (Fisher Scientific) and 0.3 ml ice cold lysis buffer was added. Samples were homogenized manually on ice for two minutes at intervals of 15 minutes. This process was continued for a period of two hours. The probe was thoroughly cleaned after each sample. The homogenate was transferred to 1 ml eppendorf tubes and centrifuged at 10,000 rpm for five minutes. The protein content of the supernatant was determined using Bradford assay with bovine serum albumin as the protein standard.
A volume corresponding to 30 μg protein of the supernatant was added to a tube containing 3 μl NuPAGE® LDS sample buffer (4×) and 1 μl NuPAGE® sample reducing agent (10×). The final volume was made up to 12 μl with distilled water, and then the samples were reduced at 95° C. for 5 minutes. Gel electrophoresis was carried out in an XCell SureLock mini cell apparatus using 12 well NuPAGE® Bis-Tris Gel for protein separation. […]
The PVDF membranes were wetted with Tris-buffered saline with 0.1% Tween-20 (TBS-T), pH 7.8 for ten minutes, and were then blocked with 5% skim milk powder in TBS-T solution for two hours. […] Chemifluorescence was detected by exposure to an autoradiography film. […] The protein content was quantified using Image J software (NIH). […]

CC(=O)N(C)C [DMA, N,N-dimethylacetamide]
IL-10 expression in placental tissue: increased significantly; also recorded: enhanced expression
